A short description of this test: CCl4-induced liver injury (cirrhosis with ascites) in rats: serum proteins, ascites, fibrosis markers. In kind it is in vivo, rat. The note with it: 0.23 mg/kg.

The values below come from US8202555B2, “Natural pharmaceutical preparations for increasing albumin” (priority 2009, dated 2012).

On to `COc1cc2c(c(OC)c1OC)-c1ccc(OC)c(=O)cc1[C@@H](NC(C)=O)CC2` [Colchicine, colchicine], for which the PCIII (CCl4 rats, serum, 4 weeks) stood at 17.3 ± 4.2 ng/mL. Under “rat, in vivo”, this molecule had an HA of 172.9 ± 47.7 ng/mL, an LN of 43.2 ± 13.8 ng/mL and a TP of 55.2 ± 3.9 g/L.
